Assays:
Arp2/3 complex [1] = assay: AUC
Arp2/3 complex [2] = assay: fluorescence polarisation

Row | Binder | stoichiometry N (Arp2/3 complex [1]) | fold increase in affinity of the GST-VCA dimer over the VCA monomer (Arp2/3 complex [2])
1 | GST-WASP VCA (other) MSPILGYWKIKGLVQPTRLLLEYLEEKYEEHLYERDEGDKWRNKKFELGLEFPNLPYYIDGDVKLTQSMAIIRYIADKHNMLGGCPKERAEISMLEGAVLDIRYGVSRIAYSKDFETLKVDFLSKLPEMLKMFEDRLCHKTYLNGDHVTHPDFMLYDALDVVLYMDPMCLDAFPKLVCFKKRIEAIPQIDKYLKSSKYIAWPLQGWQATFGGGDHPPKGGRGALLDQIRQGIQLNKTPGAPESSALQPPPQSSEGLVGALMHVMQKRSRAIHSSDEGEDQAGDEDEDDEWDD | 2 GST-WASP VCA chains per Arp2/3 complex | 100 fold
2 | GST-WAVE1 VCA (other) MSPILGYWKIKGLVQPTRLLLEYLEEKYEEHLYERDEGDKWRNKKFELGLEFPNLPYYIDGDVKLTQSMAIIRYIADKHNMLGGCPKERAEISMLEGAVLDIRYGVSRIAYSKDFETLKVDFLSKLPEMLKMFEDRLCHKTYLNGDHVTHPDFMLYDALDVVLYMDPMCLDAFPKLVCFKKRIEAIPQIDKYLKSSKYIAWPLQGWQATFGGGDHPPKKRHPSTLPVISDARSVLLEAIRKGIQLRKVEEQREQEAKHERIENDVATILSRRIAVEYSDSEDDSEFDEVDWLE | – | 150 fold

Source: article PMC2680354 (Molecular cell, 2008)
